pEC50, pKd: −log10 of the molar value. “Also recorded” adds a separate entry of the source.
What was measured:
[1] = biological target: T1, LH/CG receptor (Rattus norvegicus, UniProt P16235); assay: ^125I-CG binding to intact 293 cells transiently transfected with LH/CG receptor cDNA (pCLHR); conditions: for hormone binding to the expressed LH/CG receptor: transfected 293 cells
T1 construct: introducing the entire coding region of the cloned cDNA and additional flanking regions contained on an Eco R1 fragment; expressed in transfected cells; host or cells: human kidney 293 cells (ATCC CRL1573), transient transfection with pCLHR
Description: (§1) Exponentially growing 293 cells were transiently transfected (C. Chen et al., Mol. Cell. Biol. 7:2745 (1987)) with PCLHR. 42h after transfection, intact cells were assayed for ^125I-CG binding (FIG. 4A) or CG-stimulated CAMP production (FIG. 4B).
For the assay of ^125I-CG binding (FIG. 4A), each dish was washed 4 times with 3 ml of warm Waymouth MB75211 medium lacking sodium bicarbonate and containing 20 mM Hepes and 1 mg/ml bovine serum albumin and then placed in 2 ml of the same. After 2 hours at 4° C., aliquots of highly purified CG (CR-123, 12,780 IU/mg) iodinated as described by I.-C. Kim et al. (J. Biol. Chem. 261:3807 (1986)) were added alone or together with 50 IU crude CG (for the determination of non-specific binding). After 24 hours at 4° C., the binding media and cells were transferred to plastic tubes on ice. The cells were centrifuged, washed once with 2 ml cold 150 mM NaCl, 20 mM Hepes containing 1 mg/ml bovine serum albumin, and centrifuged. Cell pellets were counted in a gamma counter.

Protein sequences, listed by entry. Tags and fused reporters are not part of them. Residues count along the entry.
UniProt P16235, 27-700: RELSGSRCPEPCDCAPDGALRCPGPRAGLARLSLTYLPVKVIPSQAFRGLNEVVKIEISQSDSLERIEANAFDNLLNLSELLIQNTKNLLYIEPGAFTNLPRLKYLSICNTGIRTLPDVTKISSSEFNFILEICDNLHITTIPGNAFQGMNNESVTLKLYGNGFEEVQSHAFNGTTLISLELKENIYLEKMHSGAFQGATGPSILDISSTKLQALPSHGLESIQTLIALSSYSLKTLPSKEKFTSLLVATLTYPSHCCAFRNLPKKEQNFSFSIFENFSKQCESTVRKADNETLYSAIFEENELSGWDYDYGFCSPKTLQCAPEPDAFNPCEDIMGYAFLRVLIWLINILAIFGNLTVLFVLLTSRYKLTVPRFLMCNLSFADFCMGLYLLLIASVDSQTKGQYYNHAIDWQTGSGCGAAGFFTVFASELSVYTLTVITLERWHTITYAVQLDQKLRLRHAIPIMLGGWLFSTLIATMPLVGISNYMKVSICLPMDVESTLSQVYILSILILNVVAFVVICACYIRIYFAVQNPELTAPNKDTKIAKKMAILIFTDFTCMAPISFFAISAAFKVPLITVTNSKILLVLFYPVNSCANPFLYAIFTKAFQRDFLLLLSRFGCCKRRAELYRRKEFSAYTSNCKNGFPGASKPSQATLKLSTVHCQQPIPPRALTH

[2] = biological target: T1, LH/CG receptor; assay: CG-stimulated cAMP production in 293 cells transiently transfected with LH/CG receptor cDNA (pCLHR); format: cell-based; conditions: for stimulation of cAMP production via the expressed LH/CG receptor: transfected 293 cells
Description: as §1
For the determination of CG-stimulated CAMP production (FIG. 4B), each dish was washed 4 times with 3 ml warm Waymouth MB752/1 medium containing 1 mg/ml bovine serum albumin and placed in 2 ml of the same containing 0.5 mM 3-isobutyl-1-methylxanthine. After a 15 min preincubation at 37° C., aliquots of highly purified CG were added and the incubation was continued for 30 min at 37° C. After removing the assay media, the cells were collected in 1.5 ml cold 1 N perchloric acid containing 1 mg/ml theophylline. Cells were lysed by rapid freezing and thawing and then centrifuged. The supernatants were neutralized and then assayed for CAMP as previously described (D. L. Segaloff et al., J. Biol. Chem. 256:11420 (1981)).

[3] = biological target: T2, FSH-R (Rattus norvegicus, UniProt P20395); assay: Hormone-stimulated cAMP production in 293 cells transiently transfected with pCFSH-R; format: cell-based; conditions: for cAMP: hormone 25 nM, 30 min of hormonal stimulation, FSH-R expressing 293 cells
T2 construct: introducing the entire coding region of the cloned cDNA contained on an EcoRi-Bam HI fragment; expressed in transfected cells; host or cells: human embryonic kidney 293 cells (ATCC CRL 1573), transient transfection with pCFSH-R
T2 sequence (P20395 18-692): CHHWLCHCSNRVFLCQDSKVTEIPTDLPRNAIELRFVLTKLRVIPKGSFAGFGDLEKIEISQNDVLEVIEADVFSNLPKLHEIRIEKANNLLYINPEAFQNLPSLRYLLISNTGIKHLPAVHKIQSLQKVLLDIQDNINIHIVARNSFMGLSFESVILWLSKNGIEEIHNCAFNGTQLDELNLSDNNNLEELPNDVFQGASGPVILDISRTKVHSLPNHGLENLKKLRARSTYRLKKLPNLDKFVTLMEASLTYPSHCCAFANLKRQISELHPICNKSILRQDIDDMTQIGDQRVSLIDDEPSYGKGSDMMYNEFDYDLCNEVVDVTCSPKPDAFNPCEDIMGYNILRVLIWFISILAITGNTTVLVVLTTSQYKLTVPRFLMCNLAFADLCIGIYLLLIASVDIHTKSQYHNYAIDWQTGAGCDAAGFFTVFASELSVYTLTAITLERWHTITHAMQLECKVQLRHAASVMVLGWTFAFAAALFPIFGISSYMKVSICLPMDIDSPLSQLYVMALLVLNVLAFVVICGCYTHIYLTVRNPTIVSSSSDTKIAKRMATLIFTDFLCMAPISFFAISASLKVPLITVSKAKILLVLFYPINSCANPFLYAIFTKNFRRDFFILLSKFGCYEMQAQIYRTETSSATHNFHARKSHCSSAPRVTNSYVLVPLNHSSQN
Description: The expression vector pCFSH-R was constructed by introducing the entire coding region of the cloned cDNA contained on an EcoRi-Bam HI fragment (nucleotides—77 to 2095) into the PCIS vector (C. M. Gorman et al., Virology, 171:377-385 (1989)). Exponentially growing human embryonic kidney cells 293 (ATCC CRL 1573) in 34 mm dishes were transfected with this expression vector (C. Chen and H. Okayama, Mol. Cell. Biol., 7:2745-2751 (1987)). After 42 hr intact cells were assayed for hormone-stimulated CAMP production. Each dish was washed once with 3 ml of warm DMEM medium containing 10% fetal calf serum and placed in 1 ml of the serum-free DMEM-medium buffered with 25 mM HEPES pH 7.4 containing 0.1 mM 34sobutyl-1-methylxanthine. After a 15-minute incubation period at 37° C., highly purified glycoprotein hormone (OFSH, hTSH, or hCG) was added and the incubation was continued for 30 min at 37° C. The assay was stopped by rapid freezing and thawing of the cells in liquid nitrogen and then 1.2 ml cold ethanol was added to each dish. The cell debris and precipitated protein were removed by centrifugation (10 min; 13,000×g) and 5 μl or 50 μL of the supernatant was assayed for CAMP using an Amersham kit.

Row | Substance | hormone binding to the expressed LH/CG receptor [1] | stimulation of cAMP production via the expressed LH/CG receptor [2] | pEC50 ([2]; transfected human kidney 293 cells, read-out: EC50 of CG for increased cAMP production) | cAMP response in FSH-R expressing cells ([3]; concentrations up to 25 nM) | cAMP [3] | pKd ([1]; transfected human kidney 293 cells, intact cells)
1 | CG: highly purified human choriogonadotropin (CR-123, 12,780 IU/mg), glycoprotein hormone | bind with high affinity | stimulate CAMP production; also recorded: concentration-dependent and saturable increase in intracellular CAMP | 10.10 to 10.40 | did not evoke a CAMP response | 7.6 pmoles/10^6 cells | –
2 | ^125I-CG: highly purified CG (CR-123) iodinated with 125I, radioligand [reference compound] | specifically bound hormone in a concentration-dependent and saturable manner | – | – | – | – | 9.80 to 10.10
3 | hFSH: follicle stimulating hormone (hFSH), glycoprotein hormone | not | not | – | – | – | –
4 | hTSH: highly purified thyroid stimulating hormone (NIDDK-hTSH-1-6; 17 IU/mg) | not | not | – | – | 12.0 pmoles/10^6 cells | –
